Yeast mating assay B: variants of the scFv Ab-14

The measurements come from Li et al. 2023 (doi:10.1038/s41467-023-39022-2) through the FLAb antibody collection.

Antigen: PDVDLGDISGINAS, a 14-residue peptide of the SARS-CoV-2 spike HR2 region.

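This is the validation round: designs drawn from the data on random variants, tested in the same kind of assay. Their group label is 14H_GP_HC (GP: Gaussian process model; HC: hill climbing; a sequence that several methods proposed may carry one label only). In AlphaSeq, yeast of one mating type display the scFv and yeast of the other type display the target. After mating in shaken culture at 30 °C for 16 h, diploids were selected and their barcode pairs sequenced. Read counts were normalised to the haploid input and turned into Kd by a linear fit to BCL2-family pairs of known affinity, for each replicate. The assay was run in six technical replicates.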

Each scFv is VH, a 15-residue (Gly4Ser)3 linker, VL, as in the parent Ab-14, and differs from it in the CDRs of the heavy chain only.
VH: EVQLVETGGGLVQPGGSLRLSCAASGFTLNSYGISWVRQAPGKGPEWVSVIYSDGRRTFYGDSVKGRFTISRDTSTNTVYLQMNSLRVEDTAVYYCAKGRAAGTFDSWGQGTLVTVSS
VL: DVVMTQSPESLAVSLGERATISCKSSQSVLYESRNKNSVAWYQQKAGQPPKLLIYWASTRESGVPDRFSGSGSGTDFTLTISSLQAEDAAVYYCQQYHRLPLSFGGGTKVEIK

Substitutions are numbered in sequence along the VH above, starting at 1 (not Kabat). Scale: log10 of Kd in nM, estimated from mating counts; low values are strong binders. Replicates are averaged; those with no signal do not enter the mean. An entry "ND" has no value in the source: the pair was not observed among the diploids in that replicate. This suggests poor binding but is not conclusive. The authors' rule: three or more of the six replicates give a measured affinity, fewer mean a poor binder. The parent sequence was in this pool as ten entries: three were never detected, three once, and four in most replicates, with averages from 0.34 to 2.37. A sequence measured in both rounds can read differently, since the two assays cover different ranges. Background: pairings of all heavy chain designs with three empty control strains gave a value in 1% of cases (median 2.08, 5th percentile 0.84). Values in that range, when seen in few replicates, are hard to tell from nonspecific mating. The control count says in how many pairings with the empty strains this scFv gave a signal, with their mean in brackets.

changes | log10 Kd (nM) by replicate | log10 Kd (nM), mean | control signals
T28D+A101E+D106E | -0.25 / -0.12 / -0.22 / -0.17 / 0.11 / -0.19 | -0.14 | 0 of 18
T28H+S31D+G61I+A101L | 1.05 / 0.64 / 1.42 / 1.29 / 1.28 / 1.66 | 1.22 | 0 of 18
T28S+S31D+F59M | 0.42 / 0.74 / 0.98 / 0.73 / 0.62 / 1.75 | 0.87 | 1 of 18 (1.35)
T28K+G61L+R100L+A101L | ND / 1.72 / ND / 2.99 / 2.23 / 1.65 | 2.15 | 0 of 18
G61I+R100M+A101E | 1.77 / ND / 0.57 / 1.09 / 0.35 / ND | 0.95 | 0 of 18
T28N+F59A+G61H | 0.03 / ND / 0.37 / 0.30 / 2.15 / ND | 0.71 | 0 of 18
T28E+F59E+G61I | 1.13 / 1.01 / 1.41 / 1.53 / 1.66 / 1.55 | 1.38 | 0 of 18
G61S+R100H+A102V | ND / ND / ND / 2.45 / ND / 3.63 | 3.04 | 1 of 18 (2.30)
G61T+S63D+R100E+D106K | 0.78 / 1.20 / 1.39 / 1.30 / 2.07 / 1.81 | 1.43 | 0 of 18
G61T+R100E+A101T | 0.44 / 1.44 / 1.48 / 1.19 / 0.69 / 0.49 | 0.96 | 0 of 18
G61D+R100T+A101N | 1.01 / 0.59 / 1.63 / 0.41 / 0.48 / 0.33 | 0.74 | 0 of 18
S31D+G61K+D106V | ND / ND / ND / ND / ND / ND | ND | 0 of 18
S31D+G61I+A101R | 1.85 / ND / 1.49 / ND / 1.35 / 2.14 | 1.71 | 1 of 18 (2.22)
S53A+A101V+D106W+S107I | ND / ND / ND / ND / ND / ND | ND | 0 of 18
T28Q+S31E+G61T+S63R+R100E | ND / ND / ND / -0.28 / ND / ND | -0.28 | 0 of 18
T28S+S31E+A101M+D106I | ND / ND / ND / ND / ND / ND | ND | 0 of 18
T28W+S31E+G61T+S63R+R100E | ND / ND / ND / ND / 3.07 / 2.85 | 2.96 | 0 of 18
S31E+S53A+R100G | -0.05 / -0.15 / -0.41 / -0.27 / -0.42 / 0.02 | -0.21 | 0 of 18
N30Y+S31E+S107K | 1.18 / 0.88 / 1.95 / 0.44 / 0.49 / 0.86 | 0.97 | 2 of 18 (2.86)
G26S+S53A+A101T+D106K | ND / ND / ND / ND / ND / ND | ND | 0 of 18
T28S+S31D+G103L+S107N | ND / ND / ND / ND / ND / ND | ND | 0 of 18
R56E+G61A | 0.84 / 0.79 / 0.69 / 0.77 / 1.18 / 0.97 | 0.87 | 1 of 18 (2.32)
T28R+S31E+S107K | ND / 0.99 / ND / ND / 0.47 / 0.89 | 0.78 | 0 of 18
S31E+G61D+A101I | -0.93 / -0.89 / -0.90 / -0.45 / -0.11 / 0.54 | -0.46 | 0 of 18
S31E+G61S+A101E+D106F | ND / 0.82 / ND / ND / ND / ND | 0.82 | 0 of 18
N30D+G61D+S63R+R100Q+A101L | 1.42 / 1.42 / ND / 2.08 / 0.70 / 0.95 | 1.31 | 0 of 18
T28S+S31D+G103L+S107H | 0.48 / -0.05 / 0.20 / -0.12 / -0.07 / 0.08 | 0.09 | 1 of 18 (1.90)
T28N+G61D+R100M+A101L | 1.63 / 0.94 / 0.75 / 0.87 / 1.41 / 2.11 | 1.29 | 0 of 18
S31E+A101S+D106M+S107T | ND / ND / ND / ND / ND / ND | ND | 0 of 18
S31E+G61S+A101V | -0.36 / -0.08 / -0.07 / -0.17 / 0.13 / 0.07 | -0.08 | 1 of 18 (0.93)
T28N+G61D+R100Q+A101L | 1.25 / 0.12 / 0.37 / 0.46 / 0.48 / 0.69 | 0.56 | 0 of 18
T28D+S63D+T104H+D106N | ND / ND / ND / ND / ND / ND | ND | 0 of 18
S31E+G103L+D106I+S107F | -0.20 / 0.51 / 0.27 / 0.36 / -0.08 / 0.51 | 0.23 | 0 of 18
S31D+F59W+R100Q | 0.74 / 0.74 / 0.79 / 0.90 / 0.53 / 0.42 | 0.69 | 1 of 18 (1.26)
S31E+G61D+A101E | -0.20 / -0.08 / -0.16 / -0.56 / -0.54 / 0.00 | -0.26 | 0 of 18
S31E+G61H+G103V+S107Q | ND / ND / ND / ND / ND / ND | ND | 0 of 18
T28C+S31D+F59Y+G61I | ND / ND / ND / ND / ND / ND | ND | 0 of 18
T28Q+S31E+S63Q+D106I | ND / ND / ND / ND / ND / ND | ND | 0 of 18
G61S+A101E+D106I | ND / ND / ND / ND / ND / ND | ND | 0 of 18
T28W+S31E+G61H+S107E | ND / ND / 1.94 / ND / ND / 1.05 | 1.49 | 0 of 18
S31D+D106E+S107I | ND / 1.62 / ND / 0.72 / 0.52 / 1.10 | 0.99 | 0 of 18
S31E+R56T+G61S | 0.42 / -0.23 / -0.95 / 0.11 / -0.12 / -0.23 | -0.17 | 0 of 18
G61T+R100M+A101Y | ND / 0.73 / ND / 1.56 / 2.86 / 0.72 | 1.47 | 0 of 18
T28S+S31E+A101L+D106I | ND / ND / 1.92 / ND / ND / ND | 1.92 | 0 of 18
S31E+G61S+G103V+S107K | ND / ND / ND / ND / ND / ND | ND | 0 of 18
S31E+D106C+S107K | 1.70 / ND / ND / 0.67 / ND / 1.53 | 1.30 | 0 of 18

5 of these entries, quoted again:

changes,log10 Kd (nM) by replicate,"log10 Kd (nM), mean",control signals
T28D+S63D+T104H+D106N,ND / ND / ND / ND / ND / ND,ND,0 of 18
T28D+A101E+D106E,-0.25 / -0.12 / -0.22 / -0.17 / 0.11 / -0.19,-0.14,0 of 18
S31D+F59W+R100Q,0.74 / 0.74 / 0.79 / 0.90 / 0.53 / 0.42,0.69,1 of 18 (1.26)
T28E+F59E+G61I,1.13 / 1.01 / 1.41 / 1.53 / 1.66 / 1.55,1.38,0 of 18
T28K+G61L+R100L+A101L,ND / 1.72 / ND / 2.99 / 2.23 / 1.65,2.15,0 of 18